According to patent US20150005230A1, “CYCLODEXTRIN-BASED POLYMERS FOR THERAPEUTIC DELIVERY” (priority 2012, published 2015):

Tested on: acetyl cholinesterase
Conditions: in the presence of acetyl cholinesterase

Row | Substance | CPT release rate compared with PBS
1 | Poly(CDDCys-PA-PEG)-GlyGlyGly-CPT [HGGG6] | on the same order of magnitude as in PBS
2 | Poly(CDDCys-PA-PEG)-Gly-CPT [HG6] | on the same order of magnitude as in PBS
